Earlier results on one substance are cited in patent US20230034359A1, “GENERATION OF MATURE KUPFFER CELLS” (AGENCY FOR SCIENCE, TECHNOLOGY AND RESEARCH, priority 2018, published 2023).

Several values for one entry are separate records, joined by “and”; a condition that tells them apart may be missing. Equal entries are not always repeated.

The subject of this data set is KCs. As to conditions: before versus after LPS stimulation, references [47] and [48]; cited from earlier work.

Take lipopolysaccharide [LPS]: the “fold induction of TNFα” value is 5 folds and 10 folds.
